Chains of the proteins cited; added tags and fusions are not shown. Lines headed by an entry give the natural chain unless they say otherwise; changes in a name come on top.
UniProt P21729: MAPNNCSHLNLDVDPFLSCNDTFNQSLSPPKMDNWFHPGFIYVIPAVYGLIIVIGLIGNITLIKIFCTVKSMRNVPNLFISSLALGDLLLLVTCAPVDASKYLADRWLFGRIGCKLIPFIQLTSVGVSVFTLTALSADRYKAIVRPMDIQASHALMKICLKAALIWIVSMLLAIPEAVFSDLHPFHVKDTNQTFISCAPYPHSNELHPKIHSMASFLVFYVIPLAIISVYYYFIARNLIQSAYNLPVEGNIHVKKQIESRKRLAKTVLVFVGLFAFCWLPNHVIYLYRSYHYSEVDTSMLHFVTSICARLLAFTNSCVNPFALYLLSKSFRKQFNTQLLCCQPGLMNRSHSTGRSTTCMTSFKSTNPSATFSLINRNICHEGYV
UniProt P07492: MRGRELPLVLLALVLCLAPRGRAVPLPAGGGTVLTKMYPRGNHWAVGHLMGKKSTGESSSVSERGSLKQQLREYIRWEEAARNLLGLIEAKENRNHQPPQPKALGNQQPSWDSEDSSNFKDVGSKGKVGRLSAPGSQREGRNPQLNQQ

According to US9241991B2, “Agents, compositions, and methods for treating pruritus and related skin conditions” (The Brigham and Women's Hospital, Inc., priority 2010, dated 2016):

Molecular target: T1, GRPR (Mus musculus, UniProt P21729)
T1 construct: from tissue; host or cells: spinal cord of live mice (intrathecal injection)
Assay: Scratching after intrathecal GRP18-27 in Tlr3-/- and WT mice
Type: in vivo
Conditions: exogenous
Description: We injected pruritic agents intradermally in the nape of the neck (50 μl) or cheek (10 μl), respectively. We purchased histamine, compound 48/80, trypsin, chloroquine, serotonin, TLR3 agonist polyribo-inosinic/cytidylic acid (PIC), and complete Freund's adjuvant (CFA) from Sigma-Aldrich, histamine H1 receptor agonist histamine-trifluoromethyl-toluidine (HTMT), capsaicin, and the H4R-selective agonist 4-methylhistamine (4-MeHA) from Tocris, and endothelin-1 (ET-1) from ALEXIS Biochemicals. We also purchased the PAR2 agonist H-Ser-Leu-Ile-Gly-Arg-Leu-NH2 (SLIGRL-NH2) and gastrin-releasing peptide fragment (GRP18-27) from Bachem, and TRIF peptide inhibitor and control peptide from Invivogen. Antisense oligodeoxynucleotides (AS-ODN; 5′-AACAATTGCTTCAAGTCC-3′; SEQ ID NO:1) targeting TLR3 and mismatch ODN (MM-ODN; 5′-ACTACTACACTAGACTAC-3′; SEQ ID NO:2) were synthesized by Invitrogen according to the published sequences (2). AS-ODN (10 μg) or MM-ODN were intrathecally injected once a day for 5 days. To target DRG and spinal cord cells, TRIF inhibitor (10 μl) were delivered intrathecally into cerebral spinal fluid via a lumbar puncture. A successful spinal puncture was evidenced by a brisk tail-flick after the needle entry into subarachnoid space (3). Most reagents were dissolved in sterile saline. Capsaicin was dissolved in 10% DMSO.

itch deficits in Tlr3-/- mice: able to rescue
scratching in Tlr3-/- and WT mice: elicited comparable scratching
Substance: GRP18-27: gastrin-releasing peptide fragment from Bachem (SSSVSERGSL; Neuromedin-C; UniProt P07492 58-67, looked up, fragment)
